Measurements from ChEMBL document CHEMBL4251569, “Camptothecin-psammaplin A hybrids as topoisomerase I and HDAC dual-action inhibitors” (Eur J Med Chem, 2018).

Protein sequences, listed by entry. Tags and fused reporters are not part of them. Lines headed by an entry give the natural chain unless they say otherwise; changes in a name come on top.
UniProt P56524: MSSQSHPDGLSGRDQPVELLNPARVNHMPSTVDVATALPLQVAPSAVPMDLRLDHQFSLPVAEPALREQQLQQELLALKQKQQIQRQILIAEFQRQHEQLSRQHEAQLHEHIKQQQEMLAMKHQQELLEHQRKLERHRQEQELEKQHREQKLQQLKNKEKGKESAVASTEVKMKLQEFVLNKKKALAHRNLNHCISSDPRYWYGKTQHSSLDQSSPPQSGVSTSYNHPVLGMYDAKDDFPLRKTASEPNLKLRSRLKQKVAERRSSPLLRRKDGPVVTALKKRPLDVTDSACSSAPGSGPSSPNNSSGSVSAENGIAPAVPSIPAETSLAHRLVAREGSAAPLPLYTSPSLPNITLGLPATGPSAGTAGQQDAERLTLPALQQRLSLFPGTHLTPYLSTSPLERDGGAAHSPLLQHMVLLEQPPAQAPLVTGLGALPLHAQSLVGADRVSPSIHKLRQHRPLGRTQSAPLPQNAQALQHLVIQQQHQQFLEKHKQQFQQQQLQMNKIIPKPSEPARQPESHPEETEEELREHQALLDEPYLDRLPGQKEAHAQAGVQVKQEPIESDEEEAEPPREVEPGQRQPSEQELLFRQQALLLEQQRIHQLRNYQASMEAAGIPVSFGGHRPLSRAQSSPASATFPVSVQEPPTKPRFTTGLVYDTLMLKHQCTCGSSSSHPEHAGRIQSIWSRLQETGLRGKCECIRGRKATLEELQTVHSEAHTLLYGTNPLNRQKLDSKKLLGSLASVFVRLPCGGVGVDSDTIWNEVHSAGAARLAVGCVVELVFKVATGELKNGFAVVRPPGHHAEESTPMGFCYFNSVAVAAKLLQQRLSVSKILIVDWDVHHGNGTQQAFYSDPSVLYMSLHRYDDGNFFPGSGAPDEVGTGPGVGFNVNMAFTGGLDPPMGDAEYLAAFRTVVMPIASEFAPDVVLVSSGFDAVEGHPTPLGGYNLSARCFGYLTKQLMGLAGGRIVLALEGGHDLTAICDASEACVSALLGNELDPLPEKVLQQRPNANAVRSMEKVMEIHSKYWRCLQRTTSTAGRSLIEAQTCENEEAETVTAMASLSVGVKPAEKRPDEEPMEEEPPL

Tests used:
[1] = biological target: T1, Histone deacetylase 4 (Homo sapiens, UniProt P56524); assay: Inhibition of HDAC4 (unknown origin) using fluorogenic substrate as substrate assessed as remaining activity at 1 x 10^-5 M after 1 to 2 hrs by fluorescence assay
[2] = biological target: T1, Histone deacetylase 4; assay: Inhibition of HDAC4 (unknown origin) using fluorogenic substrate as substrate assessed as remaining activity at 3.33 x 10^-6 M after 1 to 2 hrs by fluorescence assay
[3] = biological target: T1, Histone deacetylase 4; assay: Inhibition of HDAC4 (unknown origin) using fluorogenic substrate as substrate assessed as remaining activity at 1.11 x 10^-6 M after 1 to 2 hrs by fluorescence assay
[4] = biological target: T1, Histone deacetylase 4; assay: Inhibition of HDAC4 (unknown origin) using fluorogenic substrate as substrate assessed as remaining activity at 3.70 x 10^-7 M after 1 to 2 hrs by fluorescence assay
[5] = biological target: T1, Histone deacetylase 4; assay: Inhibition of HDAC4 (unknown origin) using fluorogenic substrate as substrate assessed as remaining activity at 1.23 x 10^-7 M after 1 to 2 hrs by fluorescence assay
[6] = biological target: T1, Histone deacetylase 4; assay: Inhibition of HDAC4 (unknown origin) using fluorogenic substrate as substrate assessed as remaining activity at 4.12 x 10^-8 M after 1 to 2 hrs by fluorescence assay
[7] = biological target: T1, Histone deacetylase 4; assay: Inhibition of HDAC4 (unknown origin) using fluorogenic substrate as substrate assessed as remaining activity at 1.37 x 10^-8 M after 1 to 2 hrs by fluorescence assay
[8] = biological target: T1, Histone deacetylase 4; assay: Inhibition of HDAC4 (unknown origin) using fluorogenic substrate as substrate assessed as remaining activity at 4.57 x 10^-9 M after 1 to 2 hrs by fluorescence assay
[9] = biological target: T1, Histone deacetylase 4; assay: Inhibition of HDAC4 (unknown origin) using fluorogenic substrate as substrate assessed as remaining activity at 1.52 x 10^-9 M after 1 to 2 hrs by fluorescence assay
[10] = biological target: T1, Histone deacetylase 4; assay: Inhibition of HDAC4 (unknown origin) using fluorogenic substrate as substrate assessed as remaining activity at 5.08 x 10^-10 M after 1 to 2 hrs by fluorescence assay

SMILES	Activity [1]	Activity [2]	Activity [3]	Activity [4]	Activity [5]	Activity [6]	Activity [7]	Activity [8]	Activity [9]	Activity [10]
O=C(NCC1(c2nc(-c3ccccc3)cs2)CCOCC1)c1cccc(-c2noc(C(F)(F)F)n2)c1	3.26%	8.15%	23%	46.3%	77.8%	92.6%	101%	106%	95.3%	99.5%
CC[C@@]1(O)C(=O)OCc2c1cc1n(c2=O)Cc2c-1nc1ccccc1c2/C=N/OCCCCCC(=O)NCCSSCCNC(=O)/C(Cc1ccc(O)c(Br)c1)=N\O	77.1%	87.6%	101%	99.1%	102%	104%	103%	109%	108%	109%
CC[C@@]1(O)C(=O)OCc2c1cc1n(c2=O)Cc2c-1nc1ccc(O)cc1c2/C=N/OCCCCCC(=O)NCCSSCCNC(=O)/C(Cc1ccc(O)c(Br)c1)=N\O	101%	100%	102%	106%	109%	109%	116%	112%	111%	104%
